Biological target: mGlyT-1b (Mus musculus, UniProt P28571)
Experiment: Glycine Uptake Inhibition Assay (mGlyT-1b)
Conditions: [3H]-glycine uptake inhibition at GlyT-1, Flp-in-CHO cells transfected with mGlyT-1b cDNA

Chains of the proteins cited; added tags and fusions are not shown. Residues count along the entry.
UniProt P28571, 1-651 isoform 2: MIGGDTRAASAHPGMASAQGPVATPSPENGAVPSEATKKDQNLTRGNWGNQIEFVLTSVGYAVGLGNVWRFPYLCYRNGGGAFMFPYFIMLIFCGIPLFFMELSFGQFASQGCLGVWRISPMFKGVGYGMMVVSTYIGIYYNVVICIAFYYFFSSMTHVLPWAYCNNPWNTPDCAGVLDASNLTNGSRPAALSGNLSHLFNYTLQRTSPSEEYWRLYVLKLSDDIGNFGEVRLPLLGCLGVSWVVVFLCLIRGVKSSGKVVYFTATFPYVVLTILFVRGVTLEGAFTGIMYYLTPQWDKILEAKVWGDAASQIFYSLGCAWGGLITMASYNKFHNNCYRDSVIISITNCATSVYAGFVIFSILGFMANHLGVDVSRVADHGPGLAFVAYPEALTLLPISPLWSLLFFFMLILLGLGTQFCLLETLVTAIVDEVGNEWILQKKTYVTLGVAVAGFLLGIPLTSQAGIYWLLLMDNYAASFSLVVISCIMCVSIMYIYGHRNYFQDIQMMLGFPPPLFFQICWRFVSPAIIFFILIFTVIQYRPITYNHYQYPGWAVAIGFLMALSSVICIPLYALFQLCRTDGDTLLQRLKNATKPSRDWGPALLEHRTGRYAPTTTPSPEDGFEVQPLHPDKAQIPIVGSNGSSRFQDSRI

## CC(=O)c1ccc(N2CCN(C(=O)c3cc(S(C)(=O)=O)ccc3OCC(C)(C)C)CC2)c(F)c1
  IC50: 18 nM

From patent publication US7605163B2, “Benzoyl-piperazine derivatives” (Hoffmann-La Roche Inc., priority 2003, dated 2009)
